From US20190008848A1, “IDENTIFICATION OF ADDITIONAL ANTI-PERSISTER ACTIVITY AGAINST BORRELIA BURGDORFERI FROM AN FDA DRUG LIBRARY” (THE JOHNS HOPKINS UNIVERSITY, priority 2015, published 2019)

Test system: stationary phase B. burgdorferi

Aluminum lactate
Residual viable cells (SYBR/PI): 49%
